According to patent US20220370623A1, “Nanoparticles Comprising Prodrugs Stabilized by Albumin for Treatment of Cancer and Other Diseases” (Luminus Biosciences, Inc., priority 2019, published 2022):

Assay: Particle size of albumin solution after high-pressure homogenization, photon correlation spectroscopy (Malvern Zetasizer)
Assay type: physicochemical
Protocol: An organic phase was prepared by mixing 3.5 mL of chloroform and 0.6 mL of dehydrated ethanol. A 4% human albumin solution was prepared by dissolving 2 gm of human albumin (Sigma-Aldrich Co, USA) in 50 mL of sterile Type I water. The pH of the human albumin solution was adjusted to 6.0-6.7 by adding either 1N hydrochloric acid or 1N sodium hydroxide solution in sterile water. The above organic solution was added to the albumin phase and the mixture was pre-homogenized with an IKA homogenizer at 6000-10000 RPM (IKA Works, Germany). The resulting emulsion was subjected to high-pressure homogenization (Avestin Inc, USA). The pressure was varied between 20,000 and 30,000 psi and the emulsification process was continued for 5-8 passes. During homogenization the emulsion was cooled between 5° C. and 10° C. by circulating the coolant through the homogenizer from a temperature-controlled heat exchanger (Julabo, USA). […] The emulsion was then transferred to a rotary evaporator (Buchi, Switzerland) and rapidly evaporated to obtain an albumin solution subjected to high pressure homogenization. The evaporator pressure was set during the evaporation by a vacuum pump (Welch) at 1-5 mm Hg and the bath temperature during evaporation was set at 35° C.
The particle size of the albumin solution was determined by photon correlation spectroscopy with a Malvern Zetasizer. It was observed that there were two peaks, one around 5-8 nm and other around 120-140 nm. The peak around 5-8 nm contained nearly 99% by volume and the peak around 120-140 nm had less than 1% by volume (FIG. 9). As a control, the particle size distribution in 4% human serum solution was measured. It had only one peak around 5-8 nm (FIG. 10).

[1] = 4% albumin after homogenization with chloroform and ethanol

Substance: Example 1: 4% human albumin solution homogenized at high pressure with chloroform and ethanol, solvent evaporated; no drug
- particle size, first peak [1]: 5-8 nm
- particle size, second peak [1]: 120-140 nm
- share of first peak (5-8 nm) (after homogenization): ~99 % by volume
- share of second peak (120-140 nm) (after homogenization): less than 1 % by volume
- albumin molecules aggregated by denaturation (homogenization in an oil-in-water emulsion): 2-3%
